The values below come from US20260256860A1, “TRADITIONAL CHINESE MEDICINE COMPOSITION FOR TREATING AMYOTROPHIC LATERAL SCLEROSIS AND USE THEREOF” (HEBEI YILING MEDICAL RESEARCH INSTITUTE CO., LTD, priority 2023, published 2026).

Assay type in all cases: in vivo
The test system of experiment [1] is SOD1-G93A transgenic mice. The experiment can be described thus: Survival time of SOD1-G93A transgenic mice with ALS. The conditions noted are these: Riluzole 0.02 g/kg gavage.
The subject of experiment [2] is SOD1-G93A transgenic mice. The experiment can be described thus: Time to onset of paralysis in SOD1-G93A transgenic mice. The conditions noted are these: Riluzole 0.02 g/kg gavage; no division by gender. Here is the method: After ALS model mice were determined to have significant changes compared to negative control mice in behavioral test by combining literature as well as prior experience, they were randomly grouped according to their body weight. The drug administration was started and mice were observed. The groups were specifically divided into: model control group (M), positive drug control group (Riluzole, 0.02 g/kg, R), and low-dose (073-L), medium-dose (073-M), and high-dose groups (073-H) of the pharmaceutical composition of the present invention, with 30 animals in each group.
The corresponding drug solution was administered via gavage using a syringe at a volume of 10 ml/kg. The model group and negative control group were administered with an equivalent volume of sterile injectable water. […]
Neurological function was evaluated during the dosing phase using the Snow scoring method twice weekly. […]
The time from administration to the first occurrence of a neurological function score ≥3.5 was defined as the time to onset of paralysis. The mean time to onset of paralysis of animals was calculated. […] The paralysis delay rate for each drug group was also calculated according to the following formula: […]
The time from administration to the first occurrence of a neurological function score ≥3.5 was defined as the time to onset of paralysis. The mean time to onset of paralysis of animals was calculated. […]

Experiment [3] concerns SOD1-G93A transgenic mice. The experiment in a line: Serum malondialdehyde (MDA) in SOD1-G93A transgenic mice. The note with it: Riluzole 0.02 g/kg gavage, 30 days.

Regarding `Nc1nc2ccc(OC(F)(F)F)cc2s1` [Riluzole], the Survival time in experiment [1] (female) amounted to 142.3 ± 6.6 days; in experiment [1] (male), 140.4 ± 13.0 days; in experiment [1] (no division by gender), 141.4 ± 9.9 days. In addition, in experiment [2], the “Time to onset of paralysis” value is 134.8 ± 14.2 days. Also, in experiment [3], the “Serum malondialdehyde content, MDA” value turned out to be 31.0 ± 4.8 µM.
